Literature values, collected in patent publication US20210329915A1, “ABSORPTION PROMOTER, FLYING-INSECT PEST REPELLENT FRAGRANCE-CONTAINING COMPOSITION, AND FLYING-INSECT PEST REPELLENT PRODUCT” (DAINIHON JOCHUGIKU Co., Ltd., priority 2018, published 2021).

hexylene glycol
Vapor pressure at 20° C.: 6.7 Pa
